Sequences of proteins named here, by UniProt entry; tags and fusion partners are left off. A change or cut given only in a name is not applied to a line headed by its entry.
UniProt P56817: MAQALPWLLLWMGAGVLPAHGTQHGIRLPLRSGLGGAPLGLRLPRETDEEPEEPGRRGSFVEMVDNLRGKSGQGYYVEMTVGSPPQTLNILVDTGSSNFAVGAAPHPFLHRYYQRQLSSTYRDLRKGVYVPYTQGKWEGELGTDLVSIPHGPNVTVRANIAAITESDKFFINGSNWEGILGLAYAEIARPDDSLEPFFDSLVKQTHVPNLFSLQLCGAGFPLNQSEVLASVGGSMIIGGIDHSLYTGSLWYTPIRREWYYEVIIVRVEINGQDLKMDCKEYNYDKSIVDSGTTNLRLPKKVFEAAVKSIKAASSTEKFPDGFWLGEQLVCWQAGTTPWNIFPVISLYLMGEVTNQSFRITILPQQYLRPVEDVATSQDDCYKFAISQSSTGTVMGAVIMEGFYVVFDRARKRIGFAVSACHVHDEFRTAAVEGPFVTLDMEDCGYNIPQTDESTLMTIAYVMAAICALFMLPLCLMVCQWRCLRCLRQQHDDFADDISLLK

In ChEMBL document CHEMBL1134775, “Structure-based design: potent inhibitors of human brain memapsin 2 (beta-secretase)” (J Med Chem, 2001):

Biological target: Beta-secretase 1 (Homo sapiens, UniProt P56817)
Assay: Binding affinity for human brain memapsin 2

| SMILES | Ki |
| --- | --- |
| CC(C)C[C@H](NC(=O)[C@H](CCS(C)(=O)=O)NC(=O)[C@@H](NC(=O)OC(C)(C)C)C(C)C)[C@@H](O)C[C@@H](C)C(=O)N[C@H](C(=O)NCc1ccccc1)C(C)C | 0.008 µM |
| CSCC[C@H](NC(=O)[C@@H](NC(=O)OC(C)(C)C)C(C)C)C(=O)N[C@@H](CC(C)C)[C@@H](O)C[C@@H](CC(C)C)C(=O)N[C@H](C(=O)NCc1ccccc1)C(C)C | 10.5 µM |
